Results: US20110097324A1, “COMPOSITIONS AND METHODS FOR MODULATING NICOTINIC/NMDA RECEPTOR FUNCTION” (CENTRE FOR ADDICTION AND MENTAL HEALTH, priority 2008, published 2011)
Where no end group is shown, it is not given here.

Chains of the proteins cited; added tags and fusions are not shown. Residues count along the entry.
UniProt Q00959, 1350-1464: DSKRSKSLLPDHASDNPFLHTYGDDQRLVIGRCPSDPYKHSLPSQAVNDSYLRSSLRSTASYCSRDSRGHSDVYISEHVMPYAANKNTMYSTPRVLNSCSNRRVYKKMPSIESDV

Target: NR2A CT (Rattus norvegicus, UniProt Q00959)
Experiment: In vitro binding assay with in vitro translated [35S]-NR2A CT probe
Description: In vitro binding assay provided evidence that α7-nAchR and NR2A subunit can directly interact with each other. As shown in FIG. 2C (top panel), in vitro translated [^35S]-α7-IL2 probe hybridized with GST-NR2ACT but not GST-NR1aCT or GST alone, indicating a direct protein-protein interaction between the α7 subunit of nAchR and the NR2A subunit and an indirect interaction between α7 and NR1-1a subunit, which may be attributed to the interaction between NR1-1a with the NR2A subunit.

hybridization with [35S]-NR2A CT probe: interacts with the NR2A CT
Substance: GST-α7IL2-1-2: GST fusion of α7IL2-1-2, K326-M345 (KMPKWTRVILLNWCAWFLRM; also: GST fusion; UniProt P36544 326-345, looked up, fragment)
